## Binding of CDR-mutated scFvs to a peptide of the spike HR2 region

Antigen: PDVDLGDISGINAS, a 14-residue peptide of the SARS-CoV-2 spike HR2 region.

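The parent was found by panning a naive human phage display library on the peptide. AAYL51 was designed without a model: most single CDR substitutions and a random sample of double and triple ones. AlphaSeq pools MATa yeast showing the antibodies with MATalpha yeast showing the peptide. The frequency of each diploid, read from paired DNA barcodes, reflects how well the two displayed proteins bind. Each replicate has its own calibration line, from reference interactions of the BCL2 family. The assay was run in three technical replicates.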

Parent scFv Ab-91: VL joined to VH by a (GGGGS)3 linker. Changes lie in the heavy chain CDRs alone.
VL: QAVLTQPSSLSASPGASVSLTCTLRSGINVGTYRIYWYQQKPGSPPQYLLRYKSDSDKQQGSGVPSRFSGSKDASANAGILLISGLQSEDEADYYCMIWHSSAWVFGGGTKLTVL
VH: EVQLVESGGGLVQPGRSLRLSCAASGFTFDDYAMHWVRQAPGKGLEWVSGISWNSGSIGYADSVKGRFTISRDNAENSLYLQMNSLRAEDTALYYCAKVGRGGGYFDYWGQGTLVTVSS

Changes read parent residue, position, new residue, counted from the first residue of the VH shown. Affinities are written as log10 Kd with Kd in nM; a lower number is a better binder. The mean shown is taken over the replicates in which the pair was detected. A pair that was not seen in that replicate is written "nd"; this usually means weak binding, but a binder can also be missed. Three control strains display no target. For library AAYL51, 21% of the pairings with them gave a signal, with a median of 4.54 and one signal in twenty below 3.26, so weak values seen in few replicates may be background. The control count says in how many pairings with the empty strains this scFv gave a signal, with their mean in brackets. In this assay the parent's reference entry averaged 1.86; its copy inside this library read 0.88.

| # | changes | log10 Kd, replicates | mean log10 Kd (nM) | empty controls |
|---|---|---|---|---|
| 1 | S57F G102A Y108Q | nd nd nd | nd | 0 of 9 |
| 2 | M34L N54I | 4.78 nd nd | 4.78 | 2 of 9 (4.50) |
| 3 | S57I V64M G103T | nd nd nd | nd | 0 of 9 |
| 4 | F27I M34H H35F | 4.20 4.97 3.76 | 4.31 | 2 of 9 (4.83) |
| 5 | F27K F29S H35Y | 4.55 6.39 5.27 | 5.40 | 4 of 9 (4.86) |
| 6 | D30H G50T S52Q | 3.97 4.22 4.72 | 4.30 | 5 of 9 (4.97) |
| 7 | S55W | 4.02 4.44 nd | 4.23 | 3 of 9 (4.56) |
| 8 | Y32S S57A G102I | 3.14 5.17 nd | 4.16 | 3 of 9 (3.87) |
| 9 | A33E S55K K65N | nd nd nd | nd | 0 of 9 |
| 10 | M34V S52T A61P | 4.47 6.60 nd | 5.54 | 2 of 9 (4.46) |
| 11 | T28W V99H G104Q | 3.82 nd 4.22 | 4.02 | 1 of 9 (3.93) |
| 12 | A33I I51K G104L | 3.96 nd nd | 3.96 | 0 of 9 |
| 13 | G26Y Y32G A61Y | nd nd nd | nd | 0 of 9 |
| 14 | S52G S57M | 1.68 1.71 1.46 | 1.62 | 5 of 9 (5.34) |
| 15 | W53N D62W G102T | 3.76 nd nd | 3.76 | 0 of 9 |
| 16 | G50K S57N D107M | 5.76 5.56 5.69 | 5.67 | 6 of 9 (4.91) |
| 17 | A33C G59P | 3.09 nd nd | 3.09 | 0 of 9 |
| 18 | D62R V64Y G100C | nd nd nd | nd | 0 of 9 |
| 19 | G26Q S52G G56W | nd nd nd | nd | 3 of 9 (4.78) |
| 20 | I51C K65E G100T | nd nd nd | nd | 4 of 9 (4.67) |
| 21 | Y60C A61E K65T | nd nd nd | nd | 1 of 9 (3.29) |
| 22 | I51C G59A G103T | nd nd nd | nd | 1 of 9 (2.00) |
| 23 | G26D I58S Y60V | 5.86 nd 4.77 | 5.31 | 4 of 9 (4.96) |
| 24 | G50D I51D | nd nd nd | nd | 2 of 9 (2.98) |
| 25 | D30E G50K Y60N | 4.26 nd nd | 4.26 | 1 of 9 (5.87) |
| 26 | S55C I58E D62K | nd nd nd | nd | 0 of 9 |
| 27 | F27C M34Q D107E | 4.63 4.69 nd | 4.66 | 3 of 9 (4.67) |
| 28 | F29R D31R V99W | nd nd nd | nd | 0 of 9 |
| 29 | Y32M I51V Y60R | 4.14 nd nd | 4.14 | 2 of 9 (5.68) |
| 30 | F27H Y32T F106Q | nd nd nd | nd | 0 of 9 |
| 31 | S57D Y60F G103H | 3.99 3.90 nd | 3.95 | 3 of 9 (4.89) |
| 32 | F29T Y60P Y105G | 3.72 nd 3.48 | 3.60 | 2 of 9 (4.61) |
| 33 | F27P D31T S63H | nd nd nd | nd | 0 of 9 |
| 34 | N54P Y60K | nd nd nd | nd | 0 of 9 |
| 35 | G26K G103S Y108I | nd 3.17 2.02 | 2.59 | 0 of 9 |
| 36 | M34H G56V R101A | 4.03 5.17 nd | 4.60 | 2 of 9 (3.67) |
| 37 | F29N H35E D107I | nd nd 3.88 | 3.88 | 1 of 9 (4.74) |
| 38 | T28H G50L G103H | 4.38 nd nd | 4.38 | 5 of 9 (5.17) |
| 39 | G56R Y60W F106N | 3.91 nd 4.78 | 4.34 | 1 of 9 (5.17) |
| 40 | Y60P D62W G102L | 4.46 nd 5.52 | 4.99 | 5 of 9 (4.60) |
| 41 | D31M H35M G100H | nd nd nd | nd | 0 of 9 |
| 42 | S57D G103W | 4.70 5.19 4.95 | 4.95 | 5 of 9 (4.80) |
| 43 | I58K K65C R101C | 1.93 2.21 1.83 | 1.99 | 0 of 9 |
| 44 | I51Y R101L | nd nd nd | nd | 0 of 9 |
| 45 | D30L R101A Y105C | 4.50 3.58 nd | 4.04 | 0 of 9 |
| 46 | S57W Y60T A61I | nd nd nd | nd | 0 of 9 |
| 47 | W53D R101H G104H | nd 3.79 nd | 3.79 | 1 of 9 (3.66) |
| 48 | S55Q A61Y K65P | nd nd nd | nd | 0 of 9 |
| 49 | I51H G56T S57Q | nd nd nd | nd | 0 of 9 |
| 50 | D30W W53F | 1.28 1.52 1.28 | 1.36 | 2 of 9 (4.69) |
| 51 | N54F G56V G103N | nd nd nd | nd | 0 of 9 |
| 52 | S52E V64R G102H | nd nd nd | nd | 0 of 9 |

Extract of 4 entries:

{"changes": "N54F G56V G103N", "log10 Kd, replicates": "nd nd nd", "mean log10 Kd (nM)": "nd", "empty controls": "0 of 9"}
{"changes": "I51Y R101L", "log10 Kd, replicates": "nd nd nd", "mean log10 Kd (nM)": "nd", "empty controls": "0 of 9"}
{"changes": "D30H G50T S52Q", "log10 Kd, replicates": "3.97 4.22 4.72", "mean log10 Kd (nM)": "4.30", "empty controls": "5 of 9 (4.97)"}
{"changes": "T28W V99H G104Q", "log10 Kd, replicates": "3.82 nd 4.22", "mean log10 Kd (nM)": "4.02", "empty controls": "1 of 9 (3.93)"}

From the AlphaSeq antibody data of Engelhart et al. 2022 (doi:10.1038/s41597-022-01779-4), copy in the FLAb collection.